Target: Glutamate receptor ionotropic, NMDA 2B (Rattus norvegicus, UniProt Q00960)
Assay: Antagonist activity at NR2B NMDA receptor in Wistar rat neocortical cells assessed as inhibition of NMDA-evoked elevation of intracellular calcium concentration
Assay type: functional, cell-based
Outline: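 Rat primary neocortical cultures (trypsinised cortex, poly-D-lysine coated wells, glial proliferation stopped with […], serum-free N2 medium) used after 3-10 days in vitro. Compound added (<0.1% DMSO), 5 min baseline, then 40 µM NMDA and 5 min fluorescence recording.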

Protein sequences, listed by entry. Tags and fused reporters are not part of them.
UniProt Q00960, whole entry: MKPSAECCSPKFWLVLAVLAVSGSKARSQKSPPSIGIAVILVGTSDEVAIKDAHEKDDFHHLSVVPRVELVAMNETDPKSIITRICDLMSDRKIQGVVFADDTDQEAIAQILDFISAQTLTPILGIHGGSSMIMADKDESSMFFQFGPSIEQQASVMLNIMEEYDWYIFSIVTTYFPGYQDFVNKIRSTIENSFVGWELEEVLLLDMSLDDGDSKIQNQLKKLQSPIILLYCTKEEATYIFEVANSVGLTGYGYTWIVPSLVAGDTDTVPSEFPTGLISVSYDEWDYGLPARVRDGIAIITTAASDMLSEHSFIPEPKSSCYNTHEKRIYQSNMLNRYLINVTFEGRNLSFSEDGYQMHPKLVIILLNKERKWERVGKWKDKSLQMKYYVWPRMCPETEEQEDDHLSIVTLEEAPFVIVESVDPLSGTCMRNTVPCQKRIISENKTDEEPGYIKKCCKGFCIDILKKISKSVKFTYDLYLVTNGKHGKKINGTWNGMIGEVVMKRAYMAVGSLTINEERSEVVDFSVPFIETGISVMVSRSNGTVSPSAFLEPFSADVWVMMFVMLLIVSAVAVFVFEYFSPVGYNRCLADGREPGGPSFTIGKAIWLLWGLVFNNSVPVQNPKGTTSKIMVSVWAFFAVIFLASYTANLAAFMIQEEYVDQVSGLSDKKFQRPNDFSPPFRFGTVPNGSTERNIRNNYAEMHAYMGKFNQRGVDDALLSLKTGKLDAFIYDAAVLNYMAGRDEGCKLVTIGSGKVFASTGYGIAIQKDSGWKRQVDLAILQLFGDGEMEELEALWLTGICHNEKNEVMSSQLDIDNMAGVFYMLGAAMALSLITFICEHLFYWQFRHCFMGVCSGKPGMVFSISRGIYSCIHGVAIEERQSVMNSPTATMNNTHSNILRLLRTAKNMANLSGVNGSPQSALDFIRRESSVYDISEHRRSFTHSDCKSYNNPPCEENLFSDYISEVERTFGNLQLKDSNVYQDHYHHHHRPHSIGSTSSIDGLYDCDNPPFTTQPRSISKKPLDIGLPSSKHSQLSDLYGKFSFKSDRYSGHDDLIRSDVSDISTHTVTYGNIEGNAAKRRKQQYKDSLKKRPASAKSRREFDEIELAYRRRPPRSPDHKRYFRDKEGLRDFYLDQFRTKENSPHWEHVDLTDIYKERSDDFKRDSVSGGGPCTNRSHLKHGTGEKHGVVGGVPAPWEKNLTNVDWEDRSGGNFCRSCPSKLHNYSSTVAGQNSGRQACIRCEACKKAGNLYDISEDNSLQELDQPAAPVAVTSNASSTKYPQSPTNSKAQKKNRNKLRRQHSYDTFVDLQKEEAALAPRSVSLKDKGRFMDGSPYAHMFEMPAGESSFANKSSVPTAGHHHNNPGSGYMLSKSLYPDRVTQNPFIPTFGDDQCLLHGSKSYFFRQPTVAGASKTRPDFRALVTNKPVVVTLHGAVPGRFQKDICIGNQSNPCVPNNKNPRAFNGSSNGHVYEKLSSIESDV

- IC50: 131 nM
Compound: O=C(/C=C/c1ccc(O)cc1)N1CCC(Cc2ccccc2)CC1

From ChEMBL document CHEMBL1142862, “Selective NR1/2B N-methyl-D-aspartate receptor antagonists among indole-2-carboxamides and benzimidazole-2-carboxamides” (J Med Chem, 2007)
